Read-outs that look alike come from different tables or passages of the source.
Assays:
MCF7 cells = details: 5 days
Protocol: (§1) Subsequently, a standard MTT (3-(4,5-dimethylthiazol-2-yl)-2,5-diphenyl-2H-tetrazolium bromide) assay was performed in order to assess cell viability.
(§2) The total DMSO concentration was adjusted to 1% by volume, and the cells incubated at 37° C. under a 5% CO2 atmosphere for 5 days. […] Subsequently, a standard MTT assay was performed in order to assess cell viability.

MCF7/MXR cells = details: 5 days
Protocol: as §1, §2

Measured: cytotoxic effect

poly(lysine iso-phthalamide-co-lysine DOX iso-phthalamide) [polymer-conjugated doxorubicin]
significant cytotoxic effects: MCF7 cells; 1% by volume of DMSO | MCF7 cells; without DMSO | MCF7/MXR cells; 1% by volume of DMSO | MCF7/MXR cells; without DMSO

— patent US20060172418A1, “Hypercoiling polymers and their use in cellular delivery” (priority 2002, published 2006)
